How the values were obtained:
alkaline phosphatase [1] = test: Kinetics of alkaline phosphatase inhibition by pesticides, CSPD chemiluminescence (Lineweaver-Burk); settings: for Ki / α (interaction parameter, measure of inactivation of the enzyme in the presence of the inhibitor): CSPD 0.05 to 0.3 mM, enzyme 125 pM; for Ki: 0.1M DEA pH 10, from slopes and intercepts of Lineweaver-Burk plots; for α (interaction parameter, measure of inactivation of the enzyme in the presence of the inhibitor): pH 10
[2] = Stability at the working pH of 10; settings: pH 10
alkaline phosphatase [3] = test: Detection and quantification of pesticides by inhibition of alkaline phosphatase chemiluminescence signal in solution; settings: 364 μM (100 ppm) paraoxon, 1.82 μM CSPD

Row | SMILES | Ki (alkaline phosphatase [1]) | α (interaction parameter, measure of inactivation of the enzyme in the presence of the inhibitor) (alkaline phosphatase [1]) | stability at the working pH [2] | type of inhibition (Lineweaver-Burk plot) (alkaline phosphatase [1]; lines do not intersect on either axis, mixed type of inhibition) | inhibition of enzyme activity (alkaline phosphatase [3])
1 | COP(=S)(OC)Oc1ccc([N+](=O)[O-])cc1 | 60 µM | 0.380 |  |  | 
2 | CCOC(=O)CC(SP(=S)(OC)OC)C(=O)OCC (stereo not shown) |  |  | not particularly stable |  | 
3 | CCOP(=O)(OCC)Oc1ccc([N+](=O)[O-])cc1 | 1700 µM | 0.334 |  | mixed type of inhibition | completely inhibit

— patent US5846753A, “Chemiluminescence-based method for rapid and sensitive in-situ detection of organophosphorus compounds and metal ions” (dated 1998)
